Measurements as given in ChEMBL document CHEMBL1121803, “4-aryl-4-aminocyclohexanones and their derivatives, a novel class of analgesics. 3. m-Hydroxyphenyl derivates” (1981).
Several values for one entry are separate records, joined by “and”; a condition that tells them apart may be missing. Equal values may be shown once.

Tests used:
Mus musculus [1] = species on record: Mus musculus; assay: Sedation test by employing inclined screen test in CF-1 female mice
Mus musculus [2] = species on record: Mus musculus; assay: Antagonistic activity by measuring blockade of morphine-induced elevation of tail flick latency in CF-1 female mice

Structure (SMILES) | ED50 (Mus musculus [1]) | ED50 (Mus musculus [2]) [mg/kg]
CCCN(C)C1(c2cccc(O)c2)CCC2(CC1)OCCO2 | > 100 mg/kg | 79
CCCCCN(C)C1(c2cccc(O)c2)CCC2(CC1)OCCO2 | > 25 mg/kg | > 25
CN(CCOc1ccccc1)C1(c2cccc(O)c2)CCC2(CC1)OCCO2 | > 100 mg/kg | > 100
CN(C)C1(c2cccc(O)c2)CCC(O)(Cc2ccccc2)CC1 (configuration not stated) | > 100 mg/kg and 71 mg/kg | > 100
CCCCN(C)C1(c2cccc(O)c2)CCC2(CC1)OCCO2 | > 100 mg/kg | > 100
CN(C)C1(c2cccc(O)c2)CCC(=O)CC1 | > 200 mg/kg | 40
CN(C)C1(c2cccc(O)c2)CCC2(CC1)OCCO2 | > 100 mg/kg | 13
CN(C)C1(c2cccc(O)c2)CCC2(CC1)OCCCO2 | > 100 mg/kg | 32
CN(CC1CC1)C1(c2cccc(O)c2)CCC2(CC1)OCCO2 | > 100 mg/kg | > 100
CN(C)C1(c2cccc(O)c2)CCC2(CC1)OCC(C)(C)CO2 | > 100 mg/kg | > 100
C=CCN(C)C1(c2cccc(O)c2)CCC2(CC1)OCCO2 | > 200 mg/kg | 141
CN(C)C1(c2cccc(O)c2)CCC2(CC1)OCC(c1ccccc1)CO2 (configuration not stated) | > 100 mg/kg | > 100
CC(C)CN(C)C1(c2cccc(O)c2)CCC2(CC1)OCCO2 | > 25 mg/kg | > 25
CN(C)C1(c2cccc(O)c2)CCC(O)CC1 (configuration not stated) | > 100 mg/kg | 18
C=CCC1COC2(CCC(c3cccc(O)c3)(N(C)C)CC2)OC1 (configuration not stated) | > 100 mg/kg | > 100
CN(C)C1(c2cccc(O)c2)CCC(C)(O)CC1 (configuration not stated) | > 200 mg/kg | > 100
